The values that follow are results of earlier work, collected in US7989589B2, “Compstatin analogs with improved activity” (The Trustees Of The University Of Pennsylvania, priority 2002, dated 2011).

In this series the test system is complement activation. The conditions noted are these: in vivo animal models; cited from earlier work.

On to “5G1.1-scFv: humanized monoclonal anti-C5 antibody [Peptide 5G1.1-scFv]”, for which the “suppression of complement activation” value is on record as “suppress complement activation in in vivo animal models”.
